Reference: PMC7211195, “The influence of the coadministration of the p-glycoprotein modulator elacridar on the pharmacokinetics of lapatinib and its distribution in the brain and cerebrospinal fluid” (Investigational New Drugs, 2019)

Assay: Lapatinib pharmacokinetics in rat blood plasma (BP), HPLC-MS/MS, noncompartmental analysis
Type: in vivo, rats
Method: This study was conducted on rats, which are a promising model to predict P-gp-based drug-drug interactions at the human BBB [15]. The animals were allowed to acclimate for one week before the beginning of the experiments. Adult male Wistar-strain rats (weight 470–525 g) were used in the study. The animals were maintained under standard breeding conditions with a 12/12 h light-dark cycle (lights on at 6.00 a.m., lights off at 6.00 p.m.) at constant room temperature (23 ± 2 °C), relative humidity (55 ± 10%) and ad libitum access to food and water. The experimental protocol for this study was reviewed and approved by the Local Ethics Committee. To obtain consistent data, the study was based on the required minimum number of animals and observation time. […] Three rats were used at each time point (n = 3). In total, the research was conducted on 66 animals (n = 33 in the experimental group and n = 33 in the control group).
Elacridar was freshly dissolved in a vehicle at an initial concentration of 20 mg/mL. […] A volume of 80 μL of blood was collected from each rat by cutting off a piece of its tail. The blood samples were collected into heparinized test tubes at the following time points: […], and they were immediately centrifuged at 2880 g for 10 min at 4 °C. The anaesthetized rats (anaesthetized by intramuscular administration of 50 mg/kg ketamine and 10 mg/kg xylazine) were prepared for cisterna magna puncture. The hair over the puncture was removed and the skin was disinfected with alcohol. The animals were placed in a recumbent position with an elevated rear part of the body. The animals’ heads were slightly flexed and immobilized with the operator’s left hand. The space between the occiput rostrally and the atlas (C1) of the spinal column caudally was gently palpated with the left thumb. A 0.7 × 20 G needle with polyethylene tubing (Terumo Poland, Warsaw, Poland) was gently inserted at an approximate angle of 80–90° through the skin with the operator’s right hand into the midsagittal region. […]

[1] = blood plasma, lapatinib 100 mg/kg oral alone (IIL)

CS(=O)(=O)CCNCc1ccc(-c2ccc3ncnc(Nc4ccc(OCc5cccc(F)c5)c(Cl)c4)c3c2)o1 [lapatinib, N-{3-Chloro-4-[(3-fluorobenzyl)oxy]phenyl}-6-[5-({[2-(methylsulfonyl)ethyl]amino}methyl)-2-furyl]-4-quinazolinamine]
AUMC0-t [1]: 138,877.66 ± 11,299.79 ng × h^2/mL
AUMC0-∞ [1]: 404,148.02 ± 215,793.89 ng × h^2/mL
Clapatinib in BP, single rat (lapatinib 100 mg/kg + elacridar, 8 h, listed as Lapatinib): 775 ng/mL
